Laboratory results as given in US20200308168A1 (priority 2017, published 2020).
Counter-ions that a name gives are not always drawn.

The chains behind the UniProt entries cited, without tags or fusion partners.
UniProt P20309, whole entry: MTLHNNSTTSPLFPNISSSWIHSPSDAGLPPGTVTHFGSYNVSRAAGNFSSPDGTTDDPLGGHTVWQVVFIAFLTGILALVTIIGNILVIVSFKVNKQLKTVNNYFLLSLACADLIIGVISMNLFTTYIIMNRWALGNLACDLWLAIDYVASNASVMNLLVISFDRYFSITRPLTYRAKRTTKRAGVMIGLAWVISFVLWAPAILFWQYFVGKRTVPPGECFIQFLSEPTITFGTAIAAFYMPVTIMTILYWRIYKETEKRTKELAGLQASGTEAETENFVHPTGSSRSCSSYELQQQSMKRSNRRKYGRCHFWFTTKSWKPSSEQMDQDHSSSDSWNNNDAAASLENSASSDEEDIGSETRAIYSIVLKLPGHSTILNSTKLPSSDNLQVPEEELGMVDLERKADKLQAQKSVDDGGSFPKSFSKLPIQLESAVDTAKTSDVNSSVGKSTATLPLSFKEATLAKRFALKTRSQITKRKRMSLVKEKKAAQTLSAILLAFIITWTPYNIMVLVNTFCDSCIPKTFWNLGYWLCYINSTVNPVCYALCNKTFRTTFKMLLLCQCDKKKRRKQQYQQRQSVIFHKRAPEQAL

target: T1, human M3 receptor (Homo sapiens, UniProt P20309); experiment: not given

Compared with `O=C(Nc1ccc(F)cc1-c1cccs1)O[C@H]1C[N@]2CC[C@H]1CC2` [EXP 18, (1S,3R,4S)-Quinuclidin-3-yl (4-fluoro-2-(thiophen-2-yl)phenyl)carbamate], `O=C(Nc1ccccc1-c1cccs1)O[C@H]1C[N@]2CC[C@H]1CC2` [REF 2, (1S,3R,4S)-Quinuclidin-3-yl(2-(thiophen-2-yl)phenyl)carbamate, reference compound] is lower in “M3-receptor-selectivity (M3 over M2)” value: 39 fold for the first, 7 fold for the second.

First: C[N@+]12CC[C@H](CC1)[C@@H](OC(=O)Nc1ccc(F)cc1-c1cccs1)C2 [EXP 19, (1S,3R,4S)-3-(((4-Fluoro-2-(thiophen-2-yl)phenyl)carbamoyl)oxy)-1-methylquinuclidin-1-ium formate]
Second: C[N@+]12CC[C@H](CC1)[C@@H](OC(=O)Nc1ccccc1-c1cccs1)C2.[I-] [REF 3, (1S,3R,4S)-1-Methyl-3-(((2-(thiophen-2-yl)phenyl)carbamoyl)oxy)quinuclidin-1-ium iodide, reference compound]
The “M3-receptor-selectivity (M3 over M2)” value of the first is higher: 27 fold for the first, 6 fold for the second.

In the case of `C[N+]1(C)[C@@H]2C[C@H](OC(=O)Nc3ccc(F)cc3-c3cccs3)C[C@H]1[C@H]1O[C@H]12` [EXP 36, (1R,2R,4S,5S,7S)-7-(((4-Fluoro-2-(thiophen-2-yl)phenyl)carbamoyl)oxy)-9,9-dimethyl-3-oxa-9-azatricyclo[3.3.1.0^2,4]nonan-9-ium formate], the “better M3-receptor-selectivity compared to defluoro analogue REF 1” value is reported as 5 fold.

target: T1, human M3 receptor; experiment: biochemical

First: O=C(Nc1cc(F)c(F)cc1-c1ccccc1)O[C@H]1C[N@]2CC[C@H]1CC2 [EXP 15, (1S,3R,4S)-Quinuclidin-3-yl(4,5-difluoro-[2-phenyl]-phen-1-yl)carbamate]
Second: O=C(Nc1cc(F)c(F)c(F)c1-c1ccccc1)O[C@H]1C[N@]2CC[C@H]1CC2 [EXP 16, (1S,3R,4S)-Quinuclidin-3-yl(3,4,5-trifluoro-[2-phenyl]-phen-1-yl)carbamate]
The Ki of the first is lower: less than 1 nM for the first, 1 to 20 nM for the second. The first binds more tightly here.

First: O=C(Nc1ccc(F)cc1-c1cccs1)O[C@H]1C[N@]2CC[C@H]1CC2 [EXP 18, (1S,3R,4S)-Quinuclidin-3-yl (4-fluoro-2-(thiophen-2-yl)phenyl)carbamate]
Second: O=C(Nc1ccc(F)cc1-c1sccc1Br)O[C@H]1C[N@]2CC[C@H]1CC2 [EXP 20, (1S,3R,4S)-Quinuclidin-3-yl (2-(3-bromothiophen-2-yl)-4-fluorophenyl)carbamate]
The Ki of the first is lower: less than 1 nM for the first, 1 to 20 nM for the second. The first binds more tightly here.

`C[N@+]12CC[C@H](CC1)[C@@H](OC(=O)Nc1ccc(F)cc1-c1cccs1)C2` [EXP 19, (1S,3R,4S)-3-(((4-Fluoro-2-(thiophen-2-yl)phenyl)carbamoyl)oxy)-1-methylquinuclidin-1-ium formate] and `C[N@+]12CC[C@H](CC1)[C@@H](OC(=O)Nc1ccc(F)cc1-c1ccsc1)C2` [EXP 25, (1S,3R,4S)-3-(((4-Fluoro-2-(thiophen-3-yl)phenyl)carbamoyl)oxy)-1-methylquinuclidin-1-ium formate] cannot be ordered by Ki: less than 1 nM for the first, less than 1 nM for the second.

Compared with `Cc1ccsc1-c1cc(F)ccc1NC(=O)O[C@H]1C[N@]2CC[C@H]1CC2` [EXP 21, (1S,3R,4S)-Quinuclidin-3-yl(4-fluoro-2-(3-methylthiophen-2-yl)phenyl)carbamate], `Cc1csc(-c2cc(F)ccc2NC(=O)O[C@H]2C[N@]3CC[C@H]2CC3)c1` [EXP 22, (1S,3R,4S)-Quinuclidin-3-yl(4-fluoro-2-(4-methylthiophen-2-yl)phenyl)carbamate] is lower in Ki: 1 to 20 nM for the first, less than 1 nM for the second.

`Cc1ccc(-c2cc(F)ccc2NC(=O)O[C@H]2C[N@]3CC[C@H]2CC3)s1` [EXP 23, (1S,3R,4S)-Quinuclidin-3-yl(4-fluoro-2-(5-methylthiophen-2-yl)phenyl)carbamate] and `Cc1cc(-c2cc(F)ccc2NC(=O)O[C@H]2C[N@]3CC[C@H]2CC3)cs1` [EXP 26, (1S,3R,4S)-Quinuclidin-3-yl(4-fluoro-2-(5-methylthiophen-3-yl)phenyl)carbamate] cannot be ordered by Ki: less than 1 nM for the first, less than 1 nM for the second.

Compared with `O=C(Nc1ccc(F)cc1-c1ccsc1)O[C@H]1C[N@]2CC[C@H]1CC2` [EXP 24, (1S,3R,4S)-Quinuclidin-3-yl (4-fluoro-2-(thiophen-3-yl)phenyl)carbamate], `O=C(Nc1ccc(F)cc1-c1ccoc1)O[C@H]1C[N@]2CC[C@H]1CC2` [EXP 29, (1S,3R,4S)-Quinuclidin-3-yl(4-fluoro-2-(furan-3-yl)phenyl)carbamate] is higher in Ki: less than 1 nM for the first, 1 to 20 nM for the second.

`O=C(Nc1ccc(F)cc1-c1occc1Br)O[C@H]1C[N@]2CC[C@H]1CC2` [EXP 27, (1S,3R,4S)-Quinuclidin-3-yl (2-(3-bromofuran-2-yl)-4-fluorophenyl)carbamate] and `Cc1ccc(-c2cc(F)ccc2NC(=O)O[C@H]2C[N@]3CC[C@H]2CC3)o1` [EXP 28, (1S,3R,4S)-quinuclidin-3-yl(4-fluoro-2-(5-methylfuran-2-yl)phenyl)carbamate] fall in the same range of Ki: 1 to 20 nM for the first, 1 to 20 nM for the second.

First: O=C(Nc1ccc(F)cc1-c1cncs1)O[C@H]1C[N@]2CC[C@H]1CC2 [EXP 30, (1S,3R,4S)-Quinuclidin-3-yl (4-fluoro-2-(thiazol-5-yl)phenyl)carbamate]
Second: O=C(Nc1ccc(F)cc1-c1cncnc1)O[C@H]1C[N@]2CC[C@H]1CC2 [EXP 32, (1S,3R,4S)-Quinuclidin-3-yl(4-fluoro-2-(pyrimidin-5-yl)phenyl)carbamate]
The Ki of the first is higher: 20 to 200 nM for the first, 1 to 20 nM for the second.

First: O=C(Nc1ccc(F)cc1-c1ccncc1)O[C@H]1C[N@]2CC[C@H]1CC2 [EXP 31, (1S,3R,4S)-Quinuclidin-3-yl(4-fluoro-2-(pyridin-4-yl)phenyl)carbamate]
Second: O=C(Nc1ccc(F)cc1-c1csc2ccccc12)OC1CN2CCC1CC2 [EXP 38, (1S,3R,4S)-Quinuclidin-3-yl(2-(benzo[b]thiophen-3-yl)-4-fluorophenyl)carbamate]
The Ki of the first is lower: 1 to 20 nM for the first, 20 to 200 nM for the second.

`CN1[C@@H]2CC[C@H]1C[C@H](OC(=O)Nc1ccc(F)cc1-c1cccs1)C2` [EXP 33] and `CN1[C@@H]2C[C@H](OC(=O)Nc3ccc(F)cc3-c3cccs3)C[C@H]1[C@H]1O[C@H]12` [EXP 35] cannot be ordered by Ki: less than 1 nM for the first, less than 1 nM for the second.

Compared with `C[N+]1(C)[C@@H]2C[C@H](OC(=O)Nc3ccc(F)cc3-c3cccs3)C[C@H]1[C@H]1O[C@H]12` [EXP 36, (1R,2R,4S,5S,7S)-7-(((4-Fluoro-2-(thiophen-2-yl)phenyl)carbamoyl)oxy)-9,9-dimethyl-3-oxa-9-azatricyclo[3.3.1.0^2,4]nonan-9-ium formate], `Cc1ccsc1-c1cc(F)ccc1NC(=O)O[C@H]1C[C@@H]2[C@@H]3O[C@@H]3[C@H](C1)[N+]2(C)C` [EXP 45, (1R,2R,4S,5S,7S)-7-(((4-Fluoro-2-(3-methylthiophen-2-yl)phenyl)carbamoyl)oxy)-9,9-dimethyl-3-oxa-9-azatricyclo[3.3.1.0^2,4]nonan-9-ium formate] is higher in Ki: less than 1 nM for the first, 1 to 20 nM for the second. The first binds more tightly here.

Compared with `O=C(Nc1ccc(F)cc1-c1cc2ccccc2s1)O[C@H]1C[N@]2CC[C@H]1CC2` [EXP 37, (1S,3R,4S)-Quinuclidin-3-yl(2-(benzo[b]thiophen-2-yl)-4-fluorophenyl)carbamate], `O=C(Nc1ccc(F)cc1C1=CCc2ccccc21)O[C@H]1C[N@]2CC[C@H]1CC2` [EXP 40, (1S,3R,4S)-Quinuclidin-3-yl(4-fluoro-2-(1H-inden-3-yl)phenyl)carbamate] is higher in Ki: 1 to 20 nM for the first, 20 to 200 nM for the second. The first binds more tightly here.

Compared with `O=C(Nc1ccc(F)cc1C#Cc1ccccc1)O[C@H]1C[N@]2CC[C@H]1CC2` [EXP 41, (1S,3R,4S)-Quinuclidin-3-yl (4-fluoro-2-(phenylethynyl)phenyl)carbamate], `O=C(Nc1ccccc1-c1cccs1)O[C@H]1C[N@]2CC[C@H]1CC2` [REF 2, (1S,3R,4S)-Quinuclidin-3-yl(2-(thiophen-2-yl)phenyl)carbamate, reference compound] is lower in Ki: 20 to 200 nM for the first, less than 1 nM for the second. The second binds more tightly here.

First: O=C(Nc1ccc(F)cc1C#CC1CCCCC1)O[C@H]1C[N@]2CC[C@H]1CC2 [EXP 42, (1S,3R,4S)-Quinuclidin-3-yl (2-(cyclohexylethynyl)-4-fluorophenyl)carbamate]
Second: C[N@+]12CC[C@H](CC1)[C@@H](OC(=O)Nc1ccccc1-c1cccs1)C2.[I-] [REF 3, (1S,3R,4S)-1-Methyl-3-(((2-(thiophen-2-yl)phenyl)carbamoyl)oxy)quinuclidin-1-ium iodide, reference compound]
The Ki of the first is higher: 20 to 200 nM for the first, less than 1 nM for the second.

`Cc1ccc(-c2cc(F)ccc2NC(=O)O[C@H]2C[C@@H]3[C@@H]4O[C@@H]4[C@H](C2)[N+]3(C)C)s1` [EXP 43, (1R,2R,4S,5S,7S)-7-(((4-Fluoro-2-(5-methylthiophen-2-yl)phenyl)carbamoyl)oxy)-9,9-dimethyl-3-oxa-9-azatricyclo[3.3.1.0^2,4]nonan-9-ium formate] and `Cc1csc(-c2cc(F)ccc2NC(=O)O[C@H]2C[C@@H]3[C@@H]4O[C@@H]4[C@H](C2)[N+]3(C)C)c1` [EXP 44, (1R,2R,4S,5S,7S)-7-(((4-Fluoro-2-(4-methylthiophen-2-yl)phenyl)carbamoyl)oxy)-9,9-dimethyl-3-oxa-9-azatricyclo[3.3.1.0^2,4]nonan-9-ium formate] cannot be ordered by Ki: less than 1 nM for the first, less than 1 nM for the second.

First: C[N+]1(C)[C@@H]2C[C@H](OC(=O)Nc3ccc(F)cc3-c3ccsc3)C[C@H]1[C@H]1O[C@H]12 [EXP 46, (1R,2R,4S,5S,7S)-7-(((4-Fluoro-2-(thiophen-3-yl)phenyl)carbamoyl)oxy)-9,9-dimethyl-3-oxa-9-azatricyclo[3.3.1.0^2,4]nonan-9-ium formate]
Second: C[N+]1(C)[C@@H]2C[C@@H](OC(=O)Nc3ccc(F)cc3-c3csc4ccccc34)C[C@H]1[C@@H]1O[C@@H]12 [EXP 48, (1R,2R,4S,5S,7S)-7-(((2-(Benzo[b]thiophen-3-yl)-4-fluorophenyl)carbamoyl)oxy)-9,9-dimethyl-3-oxa-9-azatricyclo[3.3.1.0^2,4]nonan-9-ium formate]
The Ki of the first is lower: less than 1 nM for the first, 20 to 200 nM for the second.

`C[N+]1(C)[C@@H]2C[C@H](OC(=O)Nc3ccc(F)cc3-c3cc4ccccc4s3)C[C@H]1[C@H]1O[C@H]12` [EXP 47, (1R,2R,4S,5S,7S)-7-(((2-(Benzo[b]thiophen-2-yl)-4-fluorophenyl)carbamoyl)oxy)-9,9-dimethyl-3-oxa-9-azatricyclo[13.3.1.0^2,4]nonan-9-ium formate] and `C[N+]1(C)[C@@H]2C[C@@H](OC(=O)Nc3ccccc3-c3cccs3)C[C@H]1[C@@H]1O[C@@H]12` [REF 1, (1R,2R,4S,5S,7S)-9,9-Dimethyl-7-(((2-(thiophen-2-yl)phenyl)carbamoyl)oxy)-3-oxa-9-azatricyclo[3.3.1.0^2,4]nonan-9-ium formate, reference compound] cannot be ordered by Ki: less than 1 nM for the first, less than 1 nM for the second.

target: T1, human M3 receptor; experiment: not given; type: binding; parameters: expressed in transfected cells; host or cells: HEK293T, transient transfection; remark: another data set of the same source

`C[N+]1(C)[C@@H]2C[C@H](OC(=O)Nc3ccc(F)cc3-c3cccs3)C[C@H]1[C@H]1O[C@H]12` [EXP 36, (1R,2R,4S,5S,7S)-7-(((4-Fluoro-2-(thiophen-2-yl)phenyl)carbamoyl)oxy)-9,9-dimethyl-3-oxa-9-azatricyclo[3.3.1.0^2,4]nonan-9-ium formate] was tested, and the “selectivity for M3 over M2 by comparison of dissociation constants” value was 170 fold.
